According to article PMC11079024, “Identification of a family of species-selective complex I inhibitors as potential anthelmintics” (Nature Communications, 2024):
Several values for one entry are separate records, joined by “and”; a condition that tells them apart may be missing. Equal values may be shown once. Read-outs that look alike come from different tables or passages of the source.

Tested on: anthelmintic/nematicide-resistant C. elegans mutant strains
Conditions: for dose response, relative development/viability: acr-23 (ok2804)

Compound: CC(C)Cc1ccc(C(C)c2nc3ccccc3n2C)cc1 (stereo not shown) [NPD8790]
- C. elegans L1 relative development & viability (score 0-1 relative to DMSO controls) (1 µM, strain CB3474, G104D (ben-1)): 1.000
- C. elegans L1 relative development & viability (score 0-1 relative to DMSO controls) (1 µM, strain ECA917, F200Y (ben-1)): 1.000
- C. elegans L1 relative development & viability (score 0-1 relative to DMSO controls) (1 µM, strain ECA1075, F167Y (ben-1)): 0.989
- C. elegans L1 relative development & viability (score 0-1 relative to DMSO controls) (1 µM, strain ECA1080, E198A (ben-1)): 1.000
- C. elegans L1 relative development & viability (score 0-1 relative to DMSO controls) (2 µM, strain CB3474, G104D (ben-1)): 1.000
- C. elegans L1 relative development & viability (score 0-1 relative to DMSO controls) (2 µM, strain ECA917, F200Y (ben-1)): 1.000
- C. elegans L1 relative development & viability (score 0-1 relative to DMSO controls) (2 µM, strain ECA1075, F167Y (ben-1)): 1.000
- C. elegans L1 relative development & viability (score 0-1 relative to DMSO controls) (2 µM, strain ECA1080, E198A (ben-1)): 1.000
- C. elegans L1 relative development & viability (score 0-1 relative to DMSO controls) (3.9 µM, strain CB3474, G104D (ben-1)): 1.000
- C. elegans L1 relative development & viability (score 0-1 relative to DMSO controls) (3.9 µM, strain ECA917, F200Y (ben-1)): 1.000
- C. elegans L1 relative development & viability (score 0-1 relative to DMSO controls) (3.9 µM, strain ECA1075, F167Y (ben-1)): 0.969
- C. elegans L1 relative development & viability (score 0-1 relative to DMSO controls) (3.9 µM, strain ECA1080, E198A (ben-1)): 1.000
- C. elegans L1 relative development & viability (score 0-1 relative to DMSO controls) (7.8 µM, strain CB3474, G104D (ben-1)): 1.000
- C. elegans L1 relative development & viability (score 0-1 relative to DMSO controls) (7.8 µM, strain ECA917, F200Y (ben-1)): 1.000
- C. elegans L1 relative development & viability (score 0-1 relative to DMSO controls) (7.8 µM, strain ECA1075, F167Y (ben-1)): 1.000
- C. elegans L1 relative development & viability (score 0-1 relative to DMSO controls) (7.8 µM, strain ECA1080, E198A (ben-1)): 1.000
- C. elegans L1 relative development & viability (score 0-1 relative to DMSO controls) (15.6 µM, strain CB3474, G104D (ben-1)): 1.000
- C. elegans L1 relative development & viability (score 0-1 relative to DMSO controls) (15.6 µM, strain ECA917, F200Y (ben-1)): 1.000
- C. elegans L1 relative development & viability (score 0-1 relative to DMSO controls) (15.6 µM, strain ECA1075, F167Y (ben-1)): 0.915
- C. elegans L1 relative development & viability (score 0-1 relative to DMSO controls) (15.6 µM, strain ECA1080, E198A (ben-1)): 1.000
- C. elegans L1 relative development & viability (score 0-1 relative to DMSO controls) (31.3 µM, strain CB3474, G104D (ben-1)): 1.000
- C. elegans L1 relative development & viability (score 0-1 relative to DMSO controls) (31.3 µM, strain ECA917, F200Y (ben-1)): 1.000
- C. elegans L1 relative development & viability (score 0-1 relative to DMSO controls) (31.3 µM, strain ECA1075, F167Y (ben-1)): 0.959
- C. elegans L1 relative development & viability (score 0-1 relative to DMSO controls) (31.3 µM, strain ECA1080, E198A (ben-1)): 1.000
- C. elegans L1 relative development & viability (score 0-1 relative to DMSO controls) (62.5 µM, strain CB3474, G104D (ben-1)): 1.000
- C. elegans L1 relative development & viability (score 0-1 relative to DMSO controls) (62.5 µM, strain ECA917, F200Y (ben-1)): 1.000
- C. elegans L1 relative development & viability (score 0-1 relative to DMSO controls) (62.5 µM, strain ECA1075, F167Y (ben-1)): 1.000
- C. elegans L1 relative development & viability (score 0-1 relative to DMSO controls) (62.5 µM, strain ECA1080, E198A (ben-1)): 1.000
- C. elegans L1 relative development & viability (score 0-1 relative to DMSO controls) (125 µM, strain CB3474, G104D (ben-1)): 1.000
- C. elegans L1 relative development & viability (score 0-1 relative to DMSO controls) (125 µM, strain ECA917, F200Y (ben-1)): 1.000
- C. elegans L1 relative development & viability (score 0-1 relative to DMSO controls) (125 µM, strain ECA1075, F167Y (ben-1)): 1.000
- C. elegans L1 relative development & viability (score 0-1 relative to DMSO controls) (125 µM, strain ECA1080, E198A (ben-1)): 1.000
- C. elegans L1 relative development & viability (score 0-1 relative to DMSO controls) (250 µM, strain CB3474, G104D (ben-1)): 1.000
- C. elegans L1 relative development & viability (score 0-1 relative to DMSO controls) (250 µM, strain ECA917, F200Y (ben-1)): 1.000
- C. elegans L1 relative development & viability (score 0-1 relative to DMSO controls) (250 µM, strain ECA1075, F167Y (ben-1)): 0.968
- C. elegans L1 relative development & viability (score 0-1 relative to DMSO controls) (250 µM, strain ECA1080, E198A (ben-1)): 1.000
- C. elegans L1 relative development & viability (score 0-1 relative to DMSO controls) (500 µM, strain CB3474, G104D (ben-1)): 0.616
- C. elegans L1 relative development & viability (score 0-1 relative to DMSO controls) (500 µM, strain ECA917, F200Y (ben-1)): 0.616
- C. elegans L1 relative development & viability (score 0-1 relative to DMSO controls) (500 µM, strain ECA1075, F167Y (ben-1)): 0.402
- C. elegans L1 relative development & viability (score 0-1 relative to DMSO controls) (500 µM, strain ECA1080, E198A (ben-1)): 0.522
- C. elegans L1 relative development & viability (CB3474 G104D (ben-1), 1 µM, score 0-1 relative to DMSO, values >1 set to 1): 1.000
- C. elegans L1 relative development & viability (CB3474 G104D (ben-1), 2 µM, score 0-1 relative to DMSO, values >1 set to 1): 1.000
- C. elegans L1 relative development & viability (CB3474 G104D (ben-1), 3.9 µM, score 0-1 relative to DMSO, values >1 set to 1): 1.000
- C. elegans L1 relative development & viability (CB3474 G104D (ben-1), 7.8 µM, score 0-1 relative to DMSO, values >1 set to 1): 1.000
- C. elegans L1 relative development & viability (CB3474 G104D (ben-1), 15.6 µM, score 0-1 relative to DMSO, values >1 set to 1): 1.000
- C. elegans L1 relative development & viability (CB3474 G104D (ben-1), 31.3 µM, score 0-1 relative to DMSO, values >1 set to 1): 1.000
- C. elegans L1 relative development & viability (CB3474 G104D (ben-1), 62.5 µM, score 0-1 relative to DMSO, values >1 set to 1): 1.000
- C. elegans L1 relative development & viability (CB3474 G104D (ben-1), 125 µM, score 0-1 relative to DMSO, values >1 set to 1): 1.000
- C. elegans L1 relative development & viability (CB3474 G104D (ben-1), 250 µM, score 0-1 relative to DMSO, values >1 set to 1): 1.000
- C. elegans L1 relative development & viability (CB3474 G104D (ben-1), 500 µM, […]): 0.616
- C. elegans L1 relative development & viability (ECA917 F200Y (ben-1), 1 µM, score 0-1 relative to DMSO, values >1 set to 1): 1.000
- C. elegans L1 relative development & viability (ECA917 F200Y (ben-1), 2 µM, score 0-1 relative to DMSO, values >1 set to 1): 1.000
- C. elegans L1 relative development & viability (ECA917 F200Y (ben-1), 3.9 µM, score 0-1 relative to DMSO, values >1 set to 1): 1.000
- C. elegans L1 relative development & viability (ECA917 F200Y (ben-1), 7.8 µM, score 0-1 relative to DMSO, values >1 set to 1): 1.000
- C. elegans L1 relative development & viability (ECA917 F200Y (ben-1), 15.6 µM, score 0-1 relative to DMSO, values >1 set to 1): 1.000
- C. elegans L1 relative development & viability (ECA917 F200Y (ben-1), 31.3 µM, score 0-1 relative to DMSO, values >1 set to 1): 1.000
- C. elegans L1 relative development & viability (ECA917 F200Y (ben-1), 62.5 µM, score 0-1 relative to DMSO, values >1 set to 1): 1.000
- C. elegans L1 relative development & viability (ECA917 F200Y (ben-1), 125 µM, score 0-1 relative to DMSO, values >1 set to 1): 1.000
- C. elegans L1 relative development & viability (ECA917 F200Y (ben-1), 250 µM, score 0-1 relative to DMSO, values >1 set to 1): 1.000
- C. elegans L1 relative development & viability (ECA917 F200Y (ben-1), 500 µM, […]): 0.616
- C. elegans L1 relative development & viability (ECA1075 F167Y (ben-1), 2 µM, score 0-1 relative to DMSO, values >1 set to 1): 1.000
- C. elegans L1 relative development & viability (ECA1075 F167Y (ben-1), 3.9 µM, […]): 0.969
- C. elegans L1 relative development & viability (ECA1075 F167Y (ben-1), 7.8 µM, score 0-1 relative to DMSO, values >1 set to 1): 1.000
- C. elegans L1 relative development & viability (ECA1075 F167Y (ben-1), 15.6 µM, […]): 0.915
- C. elegans L1 relative development & viability (ECA1075 F167Y (ben-1), 31.3 µM, […]): 0.959
- C. elegans L1 relative development & viability (ECA1075 F167Y (ben-1), 62.5 µM, score 0-1 relative to DMSO, values >1 set to 1): 1.000
- C. elegans L1 relative development & viability (ECA1075 F167Y (ben-1), 125 µM, score 0-1 relative to DMSO, values >1 set to 1): 1.000
- C. elegans L1 relative development & viability (ECA1075 F167Y (ben-1), 250 µM, […]): 0.968
- C. elegans L1 relative development & viability (ECA1075 F167Y (ben-1), 500 µM, […]): 0.402
- C. elegans L1 relative development & viability (ECA1080 E198A (ben-1), 1 µM, score 0-1 relative to DMSO, values >1 set to 1): 1.000
- C. elegans L1 relative development & viability (ECA1080 E198A (ben-1), 2 µM, score 0-1 relative to DMSO, values >1 set to 1): 1.000
- C. elegans L1 relative development & viability (ECA1080 E198A (ben-1), 3.9 µM, score 0-1 relative to DMSO, values >1 set to 1): 1.000
- C. elegans L1 relative development & viability (ECA1080 E198A (ben-1), 7.8 µM, score 0-1 relative to DMSO, values >1 set to 1): 1.000
- C. elegans L1 relative development & viability (ECA1080 E198A (ben-1), 15.6 µM, score 0-1 relative to DMSO, values >1 set to 1): 1.000
- C. elegans L1 relative development & viability (ECA1080 E198A (ben-1), 31.3 µM, score 0-1 relative to DMSO, values >1 set to 1): 1.000
- C. elegans L1 relative development & viability (ECA1080 E198A (ben-1), 62.5 µM, score 0-1 relative to DMSO, values >1 set to 1): 1.000
- C. elegans L1 relative development & viability (ECA1080 E198A (ben-1), 125 µM, score 0-1 relative to DMSO, values >1 set to 1): 1.000
- C. elegans L1 relative development & viability (ECA1080 E198A (ben-1), 250 µM, score 0-1 relative to DMSO, values >1 set to 1): 1.000
- C. elegans L1 relative development & viability (ECA1080 E198A (ben-1), 500 µM, […]): 0.522
- dose response, relative development/viability (concentration 2, Mean of replicates): 0.942
- dose response, relative development/viability (concentration 3.9, Mean of replicates): 0.863
- dose response, relative development/viability (concentration 7.8, Mean of replicates): 0.969
- dose response, relative development/viability (concentration 15.6, Mean of replicates): 0.964
- dose response, relative development/viability (concentration 15.6, single biological replicates (Rep)): 1.000 and 0.854
- dose response, relative development/viability (concentration 31.3, Mean of replicates): 0.855
- dose response, relative development/viability (concentration 62.5, Mean of replicates): 0.866
- dose response, relative development/viability (concentration 125, Mean of replicates): 0.954
- dose response, relative development/viability (concentration 125, single biological replicates (Rep)): 1.000 and 0.926 and 0.889
